Test results taken from patent EP1611112B1, “ISOXAZOLE COMPOUNDS AS INHIBITORS OF HEAT SHOCK PROTEINS” (Vernalis (Cambridge) Limited, priority 2003, dated 2004).

Protein sequences, listed by entry. Tags and fused reporters are not part of them.
UniProt P08238, whole entry: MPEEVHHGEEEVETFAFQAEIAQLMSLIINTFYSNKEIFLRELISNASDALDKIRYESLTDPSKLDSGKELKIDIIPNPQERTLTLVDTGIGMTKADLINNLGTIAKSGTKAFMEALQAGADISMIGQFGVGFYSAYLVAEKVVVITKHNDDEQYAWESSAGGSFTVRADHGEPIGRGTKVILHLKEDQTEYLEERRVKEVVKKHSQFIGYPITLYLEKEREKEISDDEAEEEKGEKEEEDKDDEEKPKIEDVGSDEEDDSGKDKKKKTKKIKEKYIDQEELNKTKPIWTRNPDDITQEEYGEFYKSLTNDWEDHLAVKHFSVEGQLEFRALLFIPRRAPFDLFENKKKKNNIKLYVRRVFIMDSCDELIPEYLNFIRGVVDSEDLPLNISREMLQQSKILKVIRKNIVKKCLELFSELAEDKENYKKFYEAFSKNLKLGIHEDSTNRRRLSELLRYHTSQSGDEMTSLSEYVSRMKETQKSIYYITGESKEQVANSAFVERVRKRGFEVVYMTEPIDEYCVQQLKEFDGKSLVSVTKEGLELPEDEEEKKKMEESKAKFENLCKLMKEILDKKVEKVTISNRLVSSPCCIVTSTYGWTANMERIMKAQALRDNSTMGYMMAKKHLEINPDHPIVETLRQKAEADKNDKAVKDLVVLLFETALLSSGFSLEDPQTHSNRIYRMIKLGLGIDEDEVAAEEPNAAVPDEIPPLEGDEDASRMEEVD

Target: T1, human full-length HSP90 (Homo sapiens, UniProt P08238)
T1 construct: E. coli expressed human full-length HSP90 protein; made in house; host or cells: E. coli
Assay: Fluorescence Polarisation Assay (displacement of fluorescein-labelled probe RBT0045864-FAM)
Type: binding
Conditions: activity range
Excerpt: A Fluorescence Polarization_assay was also employed for the evaluation of some of the compounds of the Examples:
Fluorescence polarization {also known as fluorescence anisotropy} measures the rotation of a fluorescing species in solution, where the larger molecule the more polarized the fluorescence emission.
When the fluorophore is excited with polarized light, the emitted light is also polarized. The molecular size is proportional to the polarization of the fluorescence emission.
Test compound is added to the assay plate, left to equilibrate and the anisotropy measured again. Any change in anisotropy is due to competitive binding of compound to HSP90, thereby releasing probe.
Stored at room temperature. • 3) BSA (bovine serum albumen) 10 mg/ml (New England Biolabs # B9001S) • 4) 20 mM probe in 100 % DMSO stock concentration. Stored in the dark at RT. Working concentration is 200 nM diluted in AR water and stored at 4 °C.
1) Add 100µl 1x buffer to wells 11A and 12A (=FP BLNK) 2) Prepare assay mix - all reagents are kept on ice with a lid on the bucket as the probe is light-sensitive.
This gives 2.5 mM {50x} stock cpd - assuming cpds 20 mM. • 4) Repeat for wells A2 to A10. […] Add 2 µl of 100mM standard cpd to wells B12 - H12 {is positive control } • 13)The Z' factor is calculated from zero controls and positive wells.

IC50: < 10 µM
SMILES: CCNCc1noc(-c2cc(Cl)c(OCc3ccccc3)cc2OCc2ccccc2)c1-c1cccc(Cl)c1 [Example 39]
